Source: ChEMBL document CHEMBL1121425, “4-Amino-4-arylcyclohexanones and their derivatives, a novel class of analgesics. 1. Modification of the aryl ring” (1980)

Assays:
Mus musculus [1] = species: Mus musculus; experiment: Tested for analgesic activity using tail flick assay in mice
Mus musculus [2] = species: Mus musculus; experiment: Tested for analgesic activity using tail pinch assay in mice
Mus musculus [3] = species: Mus musculus; experiment: Tested for analgesic activity using HCl writhe assay in mice in mice
Mus musculus [4] = species: Mus musculus; experiment: Tested for sedation using inclined screen test in mice
Mus musculus [5] = experiment: Tested for narcotic antagonistic property using tail-flick procedure in mice after giving subcutaneous dose of 6.3 mg/kg of morphine sulphate

Structure (SMILES)	ED50 (Mus musculus [1]) [mg/kg]	ED50 (Mus musculus [2]) [mg/kg]	ED50 (Mus musculus [3]) [mg/kg]	ED50 (Mus musculus [4]) [mg/kg]	ED50 (Mus musculus [5]) [mg/kg]
CN(C)C1(c2ccc(Cl)c(Cl)c2)CCC(=O)CC1	63	63	> 100	–	–
CN(C)C1(c2ccccc2)CCC(=O)CC1	71	66	44	–	–
COc1ccc(C2(N(C)C)CCC(=O)CC2)cc1	19	20	19	–	–
CN(C)C1(c2ccc(Br)cc2)CCC(=O)CC1	–	–	–	> 100	> 100
